The values below come from patent US10435400B2, “2,4-disubstituted phenylene-1,5-diamine derivatives and applications thereof, and pharmaceutical compositions and pharmaceutically acceptable compositions prepared therefrom” (SHANGHAI HAIYAN PHARMACEUTICAL TECHNOLOGY CO., LTD., priority 2014, dated 2019).

The chains behind the UniProt entries cited, without tags or fusion partners. Residues count along the entry.
UniProt P00533, 25-1210 T790M/L858R limits assumed: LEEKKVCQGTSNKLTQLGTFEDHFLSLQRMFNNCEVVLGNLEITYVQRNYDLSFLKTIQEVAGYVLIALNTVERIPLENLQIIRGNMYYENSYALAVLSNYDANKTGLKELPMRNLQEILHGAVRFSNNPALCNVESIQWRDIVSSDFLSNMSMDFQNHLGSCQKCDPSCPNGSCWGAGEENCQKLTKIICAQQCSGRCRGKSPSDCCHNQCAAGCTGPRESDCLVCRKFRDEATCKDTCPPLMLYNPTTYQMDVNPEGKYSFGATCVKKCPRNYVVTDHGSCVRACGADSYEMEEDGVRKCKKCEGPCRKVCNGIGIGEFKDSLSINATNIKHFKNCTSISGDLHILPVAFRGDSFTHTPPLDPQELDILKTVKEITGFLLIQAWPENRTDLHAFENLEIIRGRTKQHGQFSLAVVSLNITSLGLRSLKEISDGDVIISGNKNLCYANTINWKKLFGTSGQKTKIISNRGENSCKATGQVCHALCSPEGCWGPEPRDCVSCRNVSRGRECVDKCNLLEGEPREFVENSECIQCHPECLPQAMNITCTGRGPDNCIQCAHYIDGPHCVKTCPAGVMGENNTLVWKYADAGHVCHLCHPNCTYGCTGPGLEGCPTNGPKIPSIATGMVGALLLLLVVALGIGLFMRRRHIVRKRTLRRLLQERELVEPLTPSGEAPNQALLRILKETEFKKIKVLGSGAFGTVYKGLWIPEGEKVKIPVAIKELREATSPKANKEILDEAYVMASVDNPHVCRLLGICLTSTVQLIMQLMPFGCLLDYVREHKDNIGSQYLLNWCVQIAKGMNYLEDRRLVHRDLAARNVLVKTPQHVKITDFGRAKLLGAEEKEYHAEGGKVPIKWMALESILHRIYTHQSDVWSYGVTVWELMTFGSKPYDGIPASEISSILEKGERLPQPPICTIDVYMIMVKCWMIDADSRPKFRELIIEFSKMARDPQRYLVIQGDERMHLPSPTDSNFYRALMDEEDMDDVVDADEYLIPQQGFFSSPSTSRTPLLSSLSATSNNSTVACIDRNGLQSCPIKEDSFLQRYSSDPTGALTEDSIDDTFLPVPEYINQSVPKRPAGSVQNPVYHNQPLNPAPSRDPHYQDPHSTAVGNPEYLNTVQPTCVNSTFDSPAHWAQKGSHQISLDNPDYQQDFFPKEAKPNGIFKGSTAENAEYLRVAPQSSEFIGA

This test deals with EGFR T790M/L858R kinase (Homo sapiens (Human), UniProt P00533, L858R/T790M).
On to `C=CC(=O)Nc1cc(Nc2ncc(Cl)c(-c3cnc4c(ccn4C)c3)n2)c(OC)cc1N(C)CCN(C)C` [Compound Z-1, N-(5-(5-chloro-4-(1-methyl-1H-pyrrolo[2,3-b]pyridin-5-yl)pyrimidin-2-amino)-2-((2-(dimethylamino)ethyl)methylamino)-4-methoxyphenyl)acrylamide], for which the selectivity ratio came to 8.33.
On the same count and under the same terms, to `C=CC(=O)Nc1cc(Nc2nccc(-c3cnc4c(ccn4C)c3)n2)c(OC)cc1N1CCC(N(C)C)CC1` [Compound Z-25] belongs 5.1; to `C=CC(=O)Nc1cc(Nc2nccc(-c3cnc4c(ccn4C)c3)n2)c(OC)cc1N1CCN(C)CC1` [Compound Z-26], 4.2.
On to `C=CC(=O)Nc1cc(Nc2nccc(-c3cnc4c(ccn4C)c3)n2)c(OC)cc1N1CC(N(C)C)C1` [Compound Z-27], for which the selectivity ratio was determined as 4.8.
The same measure, in the same setting: to `C=CC(=O)Nc1cc(Nc2ncc(F)c(-c3cnc4c(ccn4C)c3)n2)c(OC)cc1N1CCC(N(C)C)CC1` [Compound Z-29] belongs 3.1.
Turning to `C=CC(=O)Nc1cc(Nc2ncc(C(=O)OC)c(-c3cnc4c(ccn4C)c3)n2)c(OC)cc1N(C)CCN(C)C` [Compound Z-32], the concentration for half-maximal inhibition (IC50) was determined as 2 nM and the selectivity ratio came to 2.
With `C=CC(=O)Nc1cc(Nc2ncc(F)c(-c3cnc4c(cnn4C)c3)n2)c(OC)cc1N1CCC(N(C)C)CC1` [Compound Z-37], the selectivity ratio worked out at 17.8.
Same read-out and setting: under `C=CC(=O)Nc1cc(Nc2ncc(OC)c(-c3cnc4c(cnn4C)c3)n2)c(OC)cc1N1CCC(N(C)C)CC1` [Compound Z-38] stands 2.2.
Turning to `C=CC(=O)Nc1cc(Nc2ncc(Cl)c(-c3cnc4c(cnn4C)c3)n2)c(OC)cc1N(C)CCN(C)C` [Compound Z-39], the selectivity ratio worked out at 8.25.
As to `C=CC(=O)Nc1cc(Nc2ncc(Cl)c(-c3cnc4c(cnn4C)c3)n2)c(OC)cc1N1CCC(N(C)C)CC1` [Compound Z-40], the selectivity ratio was determined as 17.9.
The same measure, in the same setting: under `C=CC(=O)Nc1cc(Nc2ncc(F)c(-c3cnc4c(cnn4C)c3)n2)c(OC)cc1N(C)CCN(C)C` [Compound Z-41] stands 2.2; under `C=CC(=O)Nc1cc(Nc2ncc(OC)c(-c3cnc4c(cnn4C)c3)n2)c(OC)cc1N(C)CCN(C)C` [Compound Z-44], 3.8.
For the molecule `C=CC(=O)Nc1cc(Nc2nccc(-c3ccc4c(ccn4C)c3)n2)c(OC)cc1N(C)CCN(C)C` [Compound Z-87], the 50% inhibitory concentration (IC50) was found to be 3 nM and the selectivity ratio came to 2.7.
For `C=CC(=O)Nc1cc(Nc2ncc(Cl)c(-c3ccc4c(ccn4C)c3)n2)c(OC)cc1N(C)CCN(C)C` [Compound Z-88], in that order: 3 nM and 3.7.
For `C=CC(=O)Nc1cc(Nc2nccc(-c3cnc4c(ccn4C)c3)n2)c(OC)cc1N(C)CCN(C)CC` [Compound Z-105], the selectivity ratio is 2.3.
`C=CC(=O)Nc1cc(Nc2nccc(-c3cnc4c(ccn4C)c3)n2)c(OC)cc1N(C)CCNC` [Compound Z-106]: the selectivity ratio worked out at 2.
For the molecule `C=CC(=O)Nc1cc(Nc2nccc(-c3cnc4c(ccn4C)c3)n2)c(OC)cc1N(C)CCN(CC)CC` [Compound Z-107], the selectivity ratio turned out to be 4.
Turning to `C=CC(=O)Nc1cc(Nc2ncc(Cl)c(-c3cnc4c(ccn4C)c3)n2)c(OC)cc1N(C)CCN(C)CC` [Compound Z-109], the selectivity ratio worked out at 4.7.
`C=CC(=O)Nc1cc(Nc2nccc(-c3cnc4c(ccn4C)c3)n2)c(OC)cc1N(C)CCN1CCCC1` [Compound Z-112]: the selectivity ratio stood at 3.1.
On the same count and under the same terms, under `C=CC(=O)Nc1cc(Nc2ncc(Cl)c(-c3cnc4c(ccn4C)c3)n2)c(OC)cc1N1CC(N(C)C)C1` [Compound Z-113] stands 8.1.
`C=CC(=O)Nc1cc(Nc2ncc(Cl)c(-c3cnc4c(ccn4C)c3)n2)c(OC)cc1NCCCN(C)C` [Compound Z-114]: the concentration for half-maximal inhibition (IC50) came out at 14 nM and the selectivity ratio is 8.3.
As for `C=CC(=O)Nc1cc(Nc2nccc(-c3cnc4c(ccn4C)c3)n2)c(OC)cc1N(C)CCN(C)C(C)C` [Compound Z-115], the selectivity ratio is 3.7.
For the molecule `C=CC(=O)Nc1cc(Nc2ncc(Cl)c(-c3cnc4c(ccn4C)c3)n2)c(OC)cc1N(C)CCNC` [Compound Z-116], the selectivity ratio was 6.2.
For `C=CC(=O)Nc1cc(Nc2nccc(-c3cnc4c(ccn4C)c3)n2)c(OC)cc1OCCN(C)C` [Compound Z-117], the selectivity ratio came to 4.
On to `C=CC(=O)Nc1cc(Nc2ncc(F)c(-c3cnc4c(ccn4C)c3)n2)c(OC)cc1OCCN(C)C` [Compound Z-118], for which the selectivity ratio amounted to 3.
On the same count and under the same terms, under `C=CC(=O)Nc1cc(Nc2ncc(Cl)c(-c3cnc4c(c3)c(Cl)cn4C)n2)c(OC)cc1N(C)CCN(C)C` [Compound Z-121] stands 4.7.
As for `C=CC(=O)Nc1cc(Nc2ncc(F)c(-c3cnc4c(c3)c(Cl)cn4C)n2)c(OC)cc1N1CCC(N(C)C)CC1` [Compound Z-122], the selectivity ratio came to 5.
Consider `C=CC(=O)Nc1cc(Nc2ncc(F)c(-c3cnc4c(c3)c(Cl)cn4C)n2)c(OC)cc1N(C)CCN(C)C` [Compound Z-123], for which the selectivity ratio came to 3.
The same measure, in the same setting: under `C=CC(=O)Nc1cc(Nc2nccc(-c3cnc4c(ccn4C(C)C)c3)n2)c(OC)cc1N(C)CCN(C)C` [Compound Z-124] stands 3.25; under `C=CC(=O)Nc1cc(Nc2ncc(Cl)c(-c3cnc4c(ccn4C(C)C)c3)n2)c(OC)cc1N(C)CCN(C)C` [Compound Z-125], 7.
In the case of `C=CC(=O)Nc1cc(Nc2ncc(Cl)c(-c3cnc4c(ccn4C4CC4)c3)n2)c(OC)cc1N(C)CCN(C)C` [Compound Z-126], the selectivity ratio turned out to be 3.5.

What is called IC50 is the point on the concentration scale where inhibition reaches its midpoint. Low readings indicate greater potency, high ones weaker potency.
